Source: US4593036A, “(-)-Trans-4-(4-fluorophenyl)-3-[(4-methoxyphenoxy)meth yl]-1-methylpiperidine useful as 5-HT potentiator” (priority 1984, dated 1986)

Tested on: 5-HT uptake
Experiment: Test 173: potentiation of 5-HTP (5-hydroxytryptophane) induced hypermotility in mice (inhibition of 5HT uptake, or 5HT potentiation, test)
Type: in vivo, mice (female, NMRI strain)
Details: Mus musculus, sc, read-out: Test 173 (dose increasing the activity to double the activity found with controls receiving 5-HTP alone; ED50), s.c., 5-HTP 150 mg/kg i.p., motility 45-75 min after 5-HTP, water-soluble salt
Excerpt: I. POTENTIATION OF 5-HTP (5-HYDROXYTRYPTOPHANE) INDUCED HYPERMOTILITY IN MICE
This behavior is characterized by continuous jerky locomotion, head movements from side to side, abduction of the hind limbs, tremor, and lordosis.
Therefore, increased 5-HT in brain seems to be necessary for development of the abnormal behavior, but catecholamine release is probably not related to hyperactivity.
Measurement of the motility after administration of test drugs to 5-HTP-pretreated mice is therefore used as a test for 5-HT-potentiation, which most probably proceeds through an inhibition of 5-HT uptake.
Female mice of the NMRI strain weighing 20-22 g are used. The controls receive 5-HTP 150 mg/kg (15 ml/kg) i.p. (i.p.=intraperitoneally) and thirty (30) minutes later physiological saline (20 ml/kg) s.c. (s.c.=subcutaneously). The motility is measured by an Animex™ motimeter 45-75 minutes after 5-HTP administration. The test animals received test substance s.c. (20 ml/kg) instead of physiological saline. Five groups of two (2) mice are used for control and per dose of each test drug. the test substance is dosed according to the dose scale 1, 1.6, 2.5, 4, 6.3, and 10 mg/kg etc. The highest dose tested is about ten (10) percent of LD50.
The activity of the test animals is compared to the activity of controls. […]

`Fc1ccc([C@@H]2CCNC[C@H]2COc2ccc3c(c2)OCO3)cc1` (single isomer, unassigned) [FG 7051, reference compound] showed an ED50 of 1.7 mg/kg.
